Reference: patent US20250161474A1 (SICHUAN KELUN BIOTECH BIOPHARMACEUTICAL, published 2025)

B1: ADC 38B-A-05 (bispecific antibody, human IgG1, kappa, L234A L235A)
light: not shown
heavy: not shown
chain: DIQMTQSPSSLSASVGDRVTITCKSSQSLLYTSSQKNYLAWYQQKPGKAPKLLIYWASTRESGVPSRFSGSGSGTDFTLTISSLQPEDFATYYCQQYYAYPWTFGQGTKVEIKGGGGSGGGGSGGGGSEVQLVESGGGLVQPGGSLRLSCAASGYTFTSYWLHWVRQAPGKGLEWVGMIDPSNSDTRFNPNFKDRFTISADTSKNTAYLQMNSLRAEDTAVYYCATYRSYVTPLDYWGQGTLVTVSSGGGGDKTHTCPPCPAPEAAGGPSVFLFPPKPKDTLMISRTPEVTCVVVDVSHEDPEVKFNWYVDGVEVHNAKTKPREEQYNSTYRVVSVLTVLHQDWLNGKEYKCKVSNKALAAPIEKTISKAKGQPREPQVCTLPPSRDELTKNQVSLSCAVKGFYPSDIAVEWESNGQPENNYKTTPPVLDSDGSFFLVSKLTVDKSRWQQGNVFSCSVMHEALHNHYTQKSLSLSPGK
modifications: linker-payload A-05 on reduced Cys sulfhydryls (sites not given); DAR of the whole ADC approximately 6
B2: ADC 38B-A-14 (bispecific antibody, human IgG1, kappa, L234A L235A)
light: not shown
heavy: not shown
chain: B1 chain
modifications: linker-payload A-14 on reduced Cys sulfhydryls (sites not given); DAR of the whole ADC approximately 6

How the values were obtained:
human c-MET [1] = target: T1, human c-MET (human, UniProt P08581 25-1390); assay: cell-based or functional assay
human c-MET [2] = target: T1, human c-MET; assay: flow cytometry on MKN45 cells (highly express c-MET)
From the text: A flow cytometer (Beckman, model Cytoflex) was used to detect the interaction between anti-human EGFR/c-MET bispecific antibodies and their conjugates and human gastric cancer cells MKN45 (Nanjing Cobioer Biosciences) and human gastric cancer cells overexpressing human EGFR MKN45-EGFR (Kelun-Biotech), human lung squamous cell carcinoma EBC-1 (Nanjing Cobioer Biosciences), human lung squamous cell carcinoma EBC-1-EGFR overexpressing human EGFR (Kelun-Biotech), human non-small cell lung cancer cell HCC827 (ATCC™), and human epidermal squamous cell carcinoma cell A431 (Nanjing Cobioer Biosciences). The protocol was as follows.
The adherent cells were digested with Trypsin-EDTA solution (0.25%) (Shanghai BasalMedia) and the cell density adjusted to 4.0×10⁶ per mL. The cells were washed twice with 1% BSA and resuspended in 1% BSA solution. Then 50 μL cell suspension was added to each well of a 96-well plate (the number of cells was 2×10⁵ per well). The antibody and its conjugate were diluted with 1% BSA (final concentration 10 µg/mL, 3-fold gradient dilution, a total of 11 concentration points). Then 50 μL of the diluted antibody and ADC were added to the wells of the 96-well plate and the plate was incubated at 4° C. for 60 minutes. […]

| Binder | IC50, in vitro cell killing (CCK8) on MKN45 cells (human c-MET [1]) [nM] | EC50 (human c-MET [2]) [nM] |
| --- | --- | --- |
| B1 | 0.41 |  |
| B2 |  | 0.68 |
